Laboratory results published in patent publication US20150238460A1, “Methods and Compositions For Treating Hepatocellular Carcinoma” (priority 2012, published 2015).

Test system: advanced, unresectable HCC (various cancers in whole group)
Assay: Phase I trial G-202-001, expansion group with modified dosing regimen
Conditions: modified regimen: Day 1 40 mg/m^2, Days 2 and 3 […]^2; 15 patients
From the text: Virtually all anti-cancer agents have the potential to cause infusion reactions, which are reactions that may be allergic or non-allergic in nature and not related to the known toxicity profile of the agent. Infusion reactions are usually thought of as hypersensitivity reactions, despite the absence of an allergic component in many cases.
Endpoints evaluated in the expansion group included safety, tumor response rate, progression-free survival, and overall survival. Additional secondary endpoints included exploration of pharmacodynamic markers associated with various cancers. Assessments were routinely performed during therapy and following therapy if toxicity was the reason therapy was discontinued.
The only FDA-approved therapy for patients with unresectable HCC is sorafenib tosylate, otherwise known as Nexavar® and/or by the chemical name: 4-(4-{3-[4-Chloro-3-(trifluoromethyl)phenyl]ureido}phenoxy)N2methylpyridine-2-carboxamide 4-methylbenzenesulfonate.

8-O-(12-aminododecanoyl)-debutanoyl-thapsigargin aspartate-glutamate-γ-glutamate-γ-glutamate-γ-glutamate OH [G-202]
occurrence of infusion-related reactions: decreased
